# Assay results taken from PubChem BioAssay AID602229 (The Scripps Research Institute Molecular Screening Center, 2012).
# Amino acid sequences for entries named in this document (tags omitted).
# UniProt Q9Y5X4, whole entry: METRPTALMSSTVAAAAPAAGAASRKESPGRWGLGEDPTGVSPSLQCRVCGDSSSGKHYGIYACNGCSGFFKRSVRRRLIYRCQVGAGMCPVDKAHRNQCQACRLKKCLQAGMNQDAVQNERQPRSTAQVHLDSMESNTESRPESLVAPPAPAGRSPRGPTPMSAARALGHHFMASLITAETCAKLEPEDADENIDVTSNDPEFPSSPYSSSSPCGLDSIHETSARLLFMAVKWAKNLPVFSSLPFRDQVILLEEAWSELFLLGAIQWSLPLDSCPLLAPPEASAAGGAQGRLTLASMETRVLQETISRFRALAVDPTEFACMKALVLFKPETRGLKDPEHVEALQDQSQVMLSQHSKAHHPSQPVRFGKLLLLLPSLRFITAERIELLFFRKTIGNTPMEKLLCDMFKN
# Only a part is listed here, and it is no random draw. Activity calls are given as the source filed them.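 How the source made its calls: active means inhibition above the mean of all tested compounds plus 3 SD (cut at about 70% in these data); inactive means the rest.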
# Target: Photoreceptor-specific nuclear receptor (Homo sapiens) (UniProt Q9Y5X4)
# Assay: NCOR release from NR2E3 in cells – cell-based, luminescence, CHO-S, Gal4-NCOR/VP16-NR2E3, primary screen (AID 602229);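 further: 0% = DMSO with NR2E3 transfected cells and 100% = cells lacking NR2E3 construct; higher means lower luciferase signal from less NR2E3 corepressor binding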
# Conditions: CHO-S Gal4-NCOR/VP16-NR2E3 two-hybrid, luciferase; at 3.98 µM; active compounds read high
row,SMILES,inhibition of corepressor binding
1,CCC(=O)N(c1ccccc1)C1(COC)CCN(CCc2cccs2)CC1,inactive: -1.99%
2,CCC(=O)N(c1ccccc1)C1(COC)CCN(CCn2nnn(CC)c2=O)CC1,inactive: -20.4%
